Literature values in publication PMC5576036.

Chains of the proteins cited; added tags and fusions are not shown. Residues count along the entry.
UniProt P01589, 22-240, chain 1 of 3: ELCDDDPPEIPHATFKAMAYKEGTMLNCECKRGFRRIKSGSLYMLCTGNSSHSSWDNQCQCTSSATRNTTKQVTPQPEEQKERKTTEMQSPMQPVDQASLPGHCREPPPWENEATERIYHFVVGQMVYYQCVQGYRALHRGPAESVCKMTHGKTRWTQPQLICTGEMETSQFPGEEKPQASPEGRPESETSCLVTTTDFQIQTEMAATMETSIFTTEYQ
UniProt P60568, 21-153: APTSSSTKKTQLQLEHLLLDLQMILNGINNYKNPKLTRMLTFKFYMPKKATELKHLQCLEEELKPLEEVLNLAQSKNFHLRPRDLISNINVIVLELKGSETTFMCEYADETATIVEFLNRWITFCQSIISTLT

Molecular target: high-affinity IL-2R (Homo sapiens) (UniProt P01589)

For IL-2 (from UniProt P60568), the Kd is given as 10 pM.
